Patent publication US20190134150A1, “THERAPEUTIC METHODS FOR EXCITATORY NEUROTOXICITY-RELATED INJURIES” (Biocells (Beijing) Biotech Co., Ltd., priority 2016, published 2019)

Sequences of proteins named here, by UniProt entry; tags and fusion partners are left off. Residues count along the entry.
UniProt P78352, 61-249 limits assumed: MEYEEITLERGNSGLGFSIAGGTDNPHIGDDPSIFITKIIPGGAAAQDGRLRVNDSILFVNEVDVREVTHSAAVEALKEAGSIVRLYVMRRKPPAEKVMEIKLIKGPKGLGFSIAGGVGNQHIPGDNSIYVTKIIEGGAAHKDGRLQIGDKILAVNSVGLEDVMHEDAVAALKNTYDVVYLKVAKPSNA

What was measured:
rats = experiment: Acute toxicity test on rats; settings: dose of 200 mg/kg body weight
PDZ1/2 domain = PDZ1/2 domain (Homo sapiens, UniProt P78352); experiment: Biacore interaction force test of chimeric peptides with PDZ1/2 domain; settings: Biacore 3000, CM5 chip, immobilised PDZ1/2 protein, 1:1 binding model

## CC(C)C[C@H](NC(=O)[C@H](CCCCN)NC(=O)[C@H](CCC(=O)O)NC(=O)[C@H](Cc1ccc(O)cc1)NC(=O)[C@H](CCCNC(=N)N)NC(=O)[C@H](CCCNC(=N)N)NC(=O)[C@H](CCCNC(=N)N)NC(=O)[C@H](CCC(N)=O)NC(=O)[C@H](CCCNC(=N)N)NC(=O)[C@H](CCCNC(=N)N)NC(=O)[C@H](CCCCN)NC(=O)[C@H](CCCCN)NC(=O)[C@H](CCCNC(=N)N)NC(=O)CNC(=O)[C@@H](N)Cc1ccc(O)cc1)C(=O)N[C@H](C(=O)N[C@H](C(=O)N[C@@H](CC(C)C)C(=O)N[C@@H](CC(=O)O)C(=O)N[C@H](C(=O)NCC(=O)NCC(=O)N[C@H](C(=O)O)C(C)C)[C@@H](C)O)[C@@H](C)O)[C@@H](C)O [P6]
rats
  acute toxicity: no lethal effect and other obvious toxic side effects

## CC[C@H](C)[C@H](NC(=O)[C@H](CO)NC(=O)[C@H](CO)NC(=O)[C@H](CC(C)C)NC(=O)[C@H](CCCCN)NC(=O)[C@H](CCC(=O)O)NC(=O)[C@H](Cc1ccc(O)cc1)NC(=O)[C@H](CCCNC(=N)N)NC(=O)[C@H](CCCNC(=N)N)NC(=O)[C@H](CCCNC(=N)N)NC(=O)[C@H](CCC(N)=O)NC(=O)[C@H](CCCNC(=N)N)NC(=O)[C@H](CCCNC(=N)N)NC(=O)[C@H](CCCCN)NC(=O)[C@H](CCCCN)NC(=O)[C@H](CCCNC(=N)N)NC(=O)CNC(=O)[C@@H](N)Cc1ccc(O)cc1)C(=O)N[C@@H](CCC(=O)O)C(=O)N[C@@H](CO)C(=O)N[C@@H](CC(=O)O)C(=O)N[C@H](C(=O)O)C(C)C [YE-NA-1, reference compound]
PDZ1/2 domain
  Kd: 54.4 nM
